Where two headings read alike, the source gives them in different places.
Legend:
[1] = test system: total β-catenin in SW480 colorectal cells; experiment: cells; type: cell-based; conditions: Homo sapiens, SW480, read-out: SW480-Total β-Catenin IC50 IP
[2] = target: 6×HIS-tankyrase 2 (946-1162) (Homo sapiens (Human), UniProt Q9H2K2); experiment: Tankyrase 2 biochemical assay (AlphaLisa, anti-PAR detection); conditions: 4 nM enzyme, 250 nM NAD; read-out: TNKS2 IP IC50
[3] = target: 6×HIS-tankyrase 1 (1091-1325) (Homo sapiens (Human), UniProt O95271); experiment: biochemical; conditions: 400 nM NAD, 60 minutes at room temperature, read-out: TNKS1 IP IC50

The chains behind the UniProt entries cited, without tags or fusion partners. Residues count along the entry.
UniProt Q9H2K2, 946-1162: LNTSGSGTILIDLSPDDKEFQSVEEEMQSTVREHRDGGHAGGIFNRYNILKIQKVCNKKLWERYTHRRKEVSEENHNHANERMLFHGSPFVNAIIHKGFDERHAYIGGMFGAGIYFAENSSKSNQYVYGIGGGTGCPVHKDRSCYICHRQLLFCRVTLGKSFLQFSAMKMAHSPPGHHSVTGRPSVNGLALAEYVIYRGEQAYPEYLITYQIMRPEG
UniProt O95271, 1091-1325: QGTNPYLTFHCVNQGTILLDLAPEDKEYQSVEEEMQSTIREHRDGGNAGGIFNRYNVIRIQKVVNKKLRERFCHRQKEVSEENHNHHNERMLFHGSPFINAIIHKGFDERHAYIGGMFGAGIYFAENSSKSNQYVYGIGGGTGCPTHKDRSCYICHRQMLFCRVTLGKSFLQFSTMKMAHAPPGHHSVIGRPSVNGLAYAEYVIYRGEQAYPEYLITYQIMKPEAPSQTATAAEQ

CC1(C)OC(=O)N([C@H]2CC[C@H](NC(=O)c3ccnc4cc(F)cnc34)CC2)[C@H]1c1ccccc1 [Example 59, N-((1S,4r)-4-((S)-5,5-dimethyl-2-oxo-4-phenyloxazolidin-3-yl)cyclohexyl)-7-fluoro-1,5-naphthyridine-4-carboxamide]
IC50 [1]: 180 nM

CC1(C)OC(=O)N([C@H]2CC[C@H](n3c(=O)[nH]c4cc(Cl)ccc43)CC2)[C@H]1c1ccccc1 [Example 29, (S)-3-((1r,4S)-4-(5-chloro-2-oxo-2,3-dihydro-1H-benzo[d]imidazol-1-yl)cyclohexyl)-5,5-dimethyl-4-phenyloxazolidin-2-one]
IC50 [2]: 4.98 nM

CC1(C)OC(=O)N([C@H]2CC[C@@H](c3cnc(N)c(-c4ncccn4)c3)CC2)[C@H]1c1ccccc1 (racemic) [Example 72, 3-((1s,4s)-4-(6-amino-5-(pyrimidin-2-yl)pyridin-3-yl)cyclohexyl)-5,5-dimethyl-4-phenyloxazolidin-2-one]
IC50 ([3]; 0.25 nM enzyme): 370 nM

CC1(C)OC(=O)N([C@H]2CC[C@H](c3cnc(N)c(-c4ncccn4)c3)CC2)[C@H]1c1ccccc1 [Example 74, (S)-3-((1r,4S)-4-(6-amino-5-(pyrimidin-2-yl)pyridin-3-yl)cyclohexyl)-5,5-dimethyl-4-phenyloxazolidin-2-one]
IC50 ([3]; […] enzyme): 1.47 nM

CC1(C)OC(=O)N([C@H]2CC[C@H](c3cnc(N)c(-c4ncccn4)c3)CC2)[C@@H]1c1ccccc1 [Example 75, (R)-3-((1r,4R)-4-(6-amino-5-(pyrimidin-2-yl)pyridin-3-yl)cyclohexyl)-5,5-dimethyl-4-phenyloxazolidin-2-one]
IC50 ([3]; […] enzyme): 174 nM

— patent publication US9340549B2, “Oxazolidinone compounds and derivatives thereof” (priority 2012, dated 2016)
